Read-outs that look alike come from different tables or passages of the source.
Legend:
human A2BAR = target: T1, human A2BAR (Homo sapiens, UniProt P29275); assay: biochemical; details: read-out: hA2B percentage displacement of specific binding at 1 μM
T1 sequence (P29275 1-332): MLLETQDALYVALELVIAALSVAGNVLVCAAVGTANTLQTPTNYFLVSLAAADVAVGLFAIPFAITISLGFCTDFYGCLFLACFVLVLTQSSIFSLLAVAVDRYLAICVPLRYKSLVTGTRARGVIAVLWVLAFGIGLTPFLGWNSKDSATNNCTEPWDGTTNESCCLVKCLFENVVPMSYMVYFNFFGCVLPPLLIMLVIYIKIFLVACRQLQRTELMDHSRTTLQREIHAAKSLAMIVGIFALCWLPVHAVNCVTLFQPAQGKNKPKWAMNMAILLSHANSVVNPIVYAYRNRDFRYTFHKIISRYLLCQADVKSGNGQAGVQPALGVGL

Sequences of proteins named here, by UniProt entry; tags and fusion partners are left off.
UniProt P30542, whole entry: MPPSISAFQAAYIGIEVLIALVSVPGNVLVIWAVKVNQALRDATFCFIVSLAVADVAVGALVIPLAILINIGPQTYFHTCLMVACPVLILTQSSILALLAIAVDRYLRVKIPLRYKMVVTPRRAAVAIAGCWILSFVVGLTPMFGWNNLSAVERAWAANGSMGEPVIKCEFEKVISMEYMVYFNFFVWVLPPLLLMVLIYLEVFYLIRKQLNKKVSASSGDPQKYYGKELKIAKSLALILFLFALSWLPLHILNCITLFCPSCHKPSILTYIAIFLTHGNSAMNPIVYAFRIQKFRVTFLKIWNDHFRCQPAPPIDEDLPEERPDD
UniProt P0DMS8, whole entry: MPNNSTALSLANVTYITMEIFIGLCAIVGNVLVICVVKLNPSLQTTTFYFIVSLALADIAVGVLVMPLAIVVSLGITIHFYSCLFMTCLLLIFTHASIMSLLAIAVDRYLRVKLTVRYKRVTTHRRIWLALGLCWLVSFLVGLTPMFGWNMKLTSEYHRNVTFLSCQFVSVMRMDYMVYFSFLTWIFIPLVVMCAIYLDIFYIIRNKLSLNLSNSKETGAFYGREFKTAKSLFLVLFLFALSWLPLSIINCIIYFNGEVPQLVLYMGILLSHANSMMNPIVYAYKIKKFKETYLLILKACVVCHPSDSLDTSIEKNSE

human A2AAR = human A2AAR (Homo sapiens, UniProt P29274); details: [3H]ZM241385, human HeLa cells, n = 2
human A1AR = human A1AR (Homo sapiens, UniProt P30542)
human A3AR = human A3AR (Homo sapiens, UniProt P0DMS8); assay: biochemical; details: 3 h, read-out: hA3 percentage displacement of specific binding at 1 μM

## CNc1nc(-c2ccccc2)c(C#N)c(-c2ccc(OC)cc2)n1 [19ab]
Human A2BAR
  inhibition at 1 µM: 1%
Human A2AAR
  hA2A percentage displacement of specific binding at 1 μM: 6%
Human A1AR; Lig 2 relative to Lig 1 = 19a
  Exp relative binding affinity (ΔΔGbind): 1,09 kcal/mol

## N#Cc1c(-c2ccccc2)nc(Nc2ccccc2)nc1-c1ccccc1Cl [19g]
Human A2BAR
  inhibition at 1 µM: 14%
Human A3AR
  inhibition at 1 µM: 1%
Human A2AAR
  hA2A percentage displacement of specific binding at 1 μM: 5%

## CNc1nc(-c2ccccc2)c(C#N)c(-c2ccc(O)cc2)n1 [19z]
Human A2BAR
  inhibition at 1 µM: 2%
Human A3AR
  inhibition at 1 µM: 8%
Human A2AAR
  hA2A percentage displacement of specific binding at 1 μM: 7%

## N#Cc1c(-c2ccccc2)nc(N)nc1-c1cc(F)cc(F)c1 [18r]
Human A2BAR
  inhibition at 1 µM: 1%
Human A3AR
  inhibition at 1 µM: 1%
Human A2AAR
  hA2A percentage displacement of specific binding at 1 μM: 24%

## CNc1nc(-c2ccccc2)c(C#N)c(-c2ccc(F)cc2F)n1 [19af]
Human A2BAR
  inhibition at 1 µM: 3%
Human A3AR
  inhibition at 1 µM: 2%
Human A1AR
  A1AR selectivity: > 1000 fold
Human A1AR; Lig 2 relative to Lig 1 = 19v
  Exp relative binding affinity (ΔΔGbind): -0.02 kcal/mol
Human A1AR; Lig 2 relative to Lig 1 = 19d
  Exp relative binding affinity (ΔΔGbind): -0.16 kcal/mol

## CNc1nc(-c2ccccc2)c(C#N)c(-c2cc(F)cc(F)c2)n1 [19ah]
Human A2BAR
  inhibition at 1 µM: 15%
Human A3AR
  inhibition at 1 µM: 2%
Human A2AAR
  hA2A percentage displacement of specific binding at 1 μM: 1%

## COc1ccccc1-c1nc(Nc2ccccc2)nc(-c2ccccc2)c1C#N [19i]
Human A2BAR
  inhibition at 1 µM: 5%
Human A3AR
  inhibition at 1 µM: 9%
Human A2AAR
  hA2A percentage displacement of specific binding at 1 μM: 2%

## N#Cc1c(-c2ccccc2)nc(N)nc1C1CCCC1 [18ad]
Human A2BAR
  inhibition at 1 µM: 1%
Human A3AR
  inhibition at 1 µM: 19%
Human A2AAR
  hA2A percentage displacement of specific binding at 1 μM: 12%

## CNc1nc(-c2ccccc2)c(C#N)c(-c2ccc(Br)cc2)n1 [19x]
Human A2BAR
  inhibition at 1 µM: 8%
Human A3AR
  inhibition at 1 µM: 2%
Human A2AAR
  hA2A percentage displacement of specific binding at 1 μM: 3%

## CNc1nc(-c2ccccc2)c(C#N)c(-c2cccs2)n1 [19av]
Human A2BAR
  inhibition at 1 µM: 9%
Human A3AR
  inhibition at 1 µM: 1%
Human A2AAR
  hA2A percentage displacement of specific binding at 1 μM: 25%

## CNc1nc(-c2ccc(OC)cc2)c(C#N)c(-c2ccc(OC)cc2)n1 [19bm]
Human A2BAR
  inhibition at 1 µM: 7%
Human A3AR
  inhibition at 1 µM: 23%
Human A2AAR
  hA2A percentage displacement of specific binding at 1 μM: 2%

## N#Cc1c(-c2ccccc2)nc(N)nc1-c1ccccc1Cl [18c]
Human A2BAR
  inhibition at 1 µM: 9%
Human A3AR
  inhibition at 1 µM: 1%
Human A2AAR
  hA2A percentage displacement of specific binding at 1 μM: 1%

## CNc1nc(-c2cccc(Cl)c2)c(C#N)c(-c2cc(Cl)cc(Cl)c2)n1 [19bk]
Human A2BAR
  inhibition at 1 µM: 4%
Human A3AR
  inhibition at 1 µM: 11%
Human A2AAR
  hA2A percentage displacement of specific binding at 1 μM: 1%

## CNc1nc(-c2ccccc2)c(C#N)c(-c2ccsc2)n1 [19az]
Human A2BAR
  inhibition at 1 µM: 51%
Human A3AR
  inhibition at 1 µM: 1%
Human A2AAR
  hA2A percentage displacement of specific binding at 1 μM: 26%

## N#Cc1c(-c2cccc(Cl)c2)nc(Nc2ccccc2)nc1-c1cc(Cl)cc(Cl)c1 [19bl]
Human A2BAR
  inhibition at 1 µM: 1%
Human A3AR
  inhibition at 1 µM: 9%
Human A2AAR
  hA2A percentage displacement of specific binding at 1 μM: 4%

## CN(C)c1nc(-c2ccccc2)c(C#N)c(-c2ccc(F)cc2)n1 [20c]
Human A2BAR
  inhibition at 1 µM: 4%
Human A3AR
  inhibition at 1 µM: 1%
Human A2AAR
  hA2A percentage displacement of specific binding at 1 μM: 2%

## CN(C)c1nc(-c2ccccc2)c(C#N)c(-c2ccccc2)n1 [20a]
Human A2BAR
  inhibition at 1 µM: 3%
Human A3AR
  inhibition at 1 µM: 9%
Human A2AAR
  hA2A percentage displacement of specific binding at 1 μM: 1%

## CNc1nc(-c2ccccc2)c(C#N)c(-c2cc(Cl)cc(Cl)c2)n1 [19aj]
Human A2BAR
  inhibition at 1 µM: 1%
Human A3AR
  inhibition at 1 µM: 2%
Human A2AAR
  hA2A percentage displacement of specific binding at 1 μM: 2%
Human A1AR
  A1AR selectivity: > 1000 fold
Human A1AR; Lig 2 relative to Lig 1 = 19a
  Exp relative binding affinity (ΔΔGbind): 0,64 kcal/mol

## CCNc1nc(-c2ccccc2)c(C#N)c(-c2cc(Cl)cc(Cl)c2)n1 [19ak]
Human A2BAR
  inhibition at 1 µM: 1%
Human A3AR
  inhibition at 1 µM: 1%
Human A2AAR
  hA2A percentage displacement of specific binding at 1 μM: 16%

## CNc1nc(-c2cccc(Cl)c2)c(C#N)c(-c2cccc(Cl)c2)n1 [19bi]
Human A2BAR
  inhibition at 1 µM: 1%
Human A3AR
  inhibition at 1 µM: 12%
Human A2AAR
  hA2A percentage displacement of specific binding at 1 μM: 3%

## N#Cc1c(-c2ccccc2)nc(Nc2ccccc2)nc1-c1ccc(Br)cc1 [19y]
Human A2BAR
  inhibition at 1 µM: 1%
Human A3AR
  inhibition at 1 µM: 43%
Human A2AAR
  hA2A percentage displacement of specific binding at 1 μM: 8%

## CNc1nc(-c2ccccc2)c(C#N)c(-c2ccoc2)n1 [19ax]
Human A2BAR
  inhibition at 1 µM: 1%
Human A2AAR
  hA2A percentage displacement of specific binding at 1 μM: 23%
Human A1AR; Lig 2 relative to Lig 1 = 19a
  Exp relative binding affinity (ΔΔGbind): 4.14 kcal/mol
Human A1AR; Lig 2 relative to Lig 1 = 19ad
  Exp relative binding affinity (ΔΔGbind): 3.48 kcal/mol

## N#Cc1c(-c2ccccc2)nc(Nc2ccccc2)nc1-c1ccc(O)cc1 [19aa]
Human A2BAR
  inhibition at 1 µM: 1%
Human A3AR
  inhibition at 1 µM: 1%
Human A2AAR
  hA2A percentage displacement of specific binding at 1 μM: 9%

## COc1ccc(-c2nc(N)nc(-c3ccc(OC)cc3)c2C#N)cc1 [18al]
Human A2BAR
  inhibition at 1 µM: 1%
Human A3AR
  inhibition at 1 µM: 9%
Human A2AAR
  hA2A percentage displacement of specific binding at 1 μM: 2%

## N#Cc1c(-c2cccc(Cl)c2)nc(Nc2ccccc2)nc1-c1cccc(Cl)c1 [19bj]
Human A2BAR
  inhibition at 1 µM: 2%
Human A3AR
  inhibition at 1 µM: 16%
Human A2AAR
  hA2A percentage displacement of specific binding at 1 μM: 12%

## CNc1nc(-c2ccccc2)c(C#N)c(-c2cccnc2)n1 [19bd]
Human A2BAR
  inhibition at 1 µM: 13%
Human A3AR
  inhibition at 1 µM: 1%
Human A2AAR
  hA2A percentage displacement of specific binding at 1 μM: 19%

## N#Cc1c(-c2ccccc2)nc(N)nc1-c1ccc(Cl)cc1Cl [18p]
Human A2BAR
  inhibition at 1 µM: 2%
Human A3AR
  inhibition at 1 µM: 7%
Human A2AAR
  hA2A percentage displacement of specific binding at 1 μM: 29%

## N#Cc1c(-c2ccccc2)nc(Nc2ccccc2)nc1C1CCCCC1 [19bh]
Human A2BAR
  inhibition at 1 µM: 6%
Human A3AR
  inhibition at 1 µM: 3%
Human A2AAR
  hA2A percentage displacement of specific binding at 1 μM: 1%
